Earlier results, collected in publication PMC12559310, “Tumor-targeted top1 inhibitor delivery with optimized parp inhibition in advanced solid tumors: a phase i trial of gapped scheduling” (Nature Communications, 2025).
Where two headings read alike, the source gives them in different places.

Test system: patients with advanced solid malignancies
Conditions: cited from earlier work
[1] = 44 subjects treated at the MTD (9 subjects)
[2] = 44 subjects treated at the MTD (12 subjects)

## Poly-CD-PEG-Camptothecin [CRLX101]
[1]
  TEAE back pain: 21%
  TEAE cough: 21%
44 subjects treated at the MTD (11 subjects)
  TEAE cystitis: 25%
[2]
  TEAE constipation: 27%
  TEAE nausea: 27%
44 subjects treated at the MTD (20 subjects)
  TEAE fatigue: 46%
Study CRLX-001, all subjects
  TEAE back pain: 21%
